{"source": "ChEMBL document CHEMBL1255568", "about": "“Amino derivatives of indole as potent inhibitors of isoprenylcysteine carboxyl methyltransferase” (J Med Chem, 2010)", "tested_on": "MDA-MB-231", "assay": "Antiproliferative activity against human MDA-MB-231 cells after 72 hrs by colorimetric tetrazolium assay", "type": "functional, cell-based", "settings": "MDA-MB-231, 72 h", "procedure,_shortened": "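MDA-MB-231 cells grown in DMEM with 10% FBS and penicillin/streptomycin at 37 °C, 5% CO2, used within passages 10-25. Seeded at 2400 cells/well in DMEM with 5% FBS for 24 h, then exposed to compound (final DMSO 0.5% v/v) for 72 h. MTS-type tetrazolium reagent added for 2 h at 37 °C, absorbance read at 490 nm, blank subtracted. Triplicate wells. IC50 from sigmoidal viability curve, mean of at least two determinations.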", "note": "pIC50: −log10 of the molar value.", "data": [{"smiles": "CCCCCCCCn1cc(CC(N)=O)c2cc(-c3cccc(C)c3)ccc21", "values": [{"measurement": "pIC50", "result": 4.66}]}]}
